# Reference: PubChem BioAssay AID652163 (Broad Institute, 2013)
# Protein sequences, listed by entry. Tags and fused reporters are not part of them.
# UniProt P26447, whole entry: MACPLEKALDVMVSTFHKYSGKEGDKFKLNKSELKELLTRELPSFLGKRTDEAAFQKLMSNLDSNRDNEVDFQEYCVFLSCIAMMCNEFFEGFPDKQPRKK
# The list shows a part of the results, in another mix than the full data. The source made the active and inactive calls.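 How the source made its calls: active means mean inhibition of at least 70% across replicates, with every replicate also reaching that level; inconclusive means mean inhibition reaches 70% but some replicates fall short; inactive means mean inhibition below 70%.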
# Target: Protein S100-A4 (Homo sapiens) (UniProt P26447)
# Test: human S100A4 protein-peptide interaction blockers – biochemical, fluorescence polarization, TAMRA-MyoIIA peptide, primary screen (AID 652163)
# Details: at 10.7 µM, hits give high values
# Procedure, shortened: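 Compound dosing: one dose per compound; test system: human S100A4 monomer with TAMRA-labelled myosin IIA peptide; probe or stimulus: TAMRA-labelled myosin IIA heavy-chain peptide probe, 5 nM; medium: HEPES buffer with Ca2+, pH 7.2; schedule: 5 min incubation before reading; benchmarks: neutral control DMSO, positive control TFP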
row,Structure (SMILES),inhibition
1,CN1CCC(Nc2ccc(F)c(Cl)c2)CC1,inactive: 0.06%
2,CCCOc1ccc(C(=O)NCC2(N(C)C)CCCCC2)cc1,inactive: 11.8%
3,O=c1[nH]c2ccccc2n1C1CCN(C(c2cc3ccccc3o2)c2nnnn2C2CCCC2)CC1 (stereo not drawn),inactive: -7.2%
4,CC(C)(C)OC(=O)N1CCC(Nc2ccccc2)CC1,inactive: -5.84%
5,NN(c1ccccc1)C1CCN(CCc2ccccc2)CC1,inactive: -3.87%
6,O=C(O)C1(Nc2ccccc2)CCN(Cc2ccccc2)CC1,inactive: -2.31%
7,COc1cccc(C(=O)N(c2cc(C)cc(C)c2)C2CCN(C(=O)OC(C)(C)C)CC2)c1,inactive: -1.62%
8,COc1cccc(C(c2nnnn2C2CCCC2)N2CCC(n3c(=O)[nH]c4ccccc43)CC2)c1OC (stereo not drawn),inactive: 0.793%
9,COc1cc(OC)cc(C(=O)NCC2(N3CCOCC3)CCCCC2)c1,inactive: 1.39%
10,CN1CCC(Nc2ccc(Cl)cc2)CC1,inactive: -4.83%
11,O=c1[nH]c2ccccc2n1C1CCN(C(c2ccnc3ccccc23)c2nnnn2C2CCCCC2)CC1 (stereo not drawn),inactive: -0.594%
12,COc1cc(OC)cc(C(=O)NCC2(N3CCCCC3)CCCCC2)c1,inactive: -6.85%
13,CC(=O)N(c1ccccc1)C1CCNCC1,inactive: -11.7%
14,COc1cccc(C(c2nnnn2C2CCCCC2)N2CCC(n3c(=O)[nH]c4ccccc43)CC2)c1OC (stereo not drawn),inactive: -3.27%
15,CCC(c1nnnn1C1CCCCC1)N1CCC(n2c(=O)[nH]c3ccccc32)CC1 (stereo not drawn),inactive: -9.1%
16,Cc1ccc(NC2(C#N)CCN(Cc3ccccc3)CC2)cc1,inactive: 0.203%
17,Cc1ccc(C(=O)NCC2(N3CCCCC3)CCCCC2)o1,inactive: -6.87%
18,Fc1ccccc1NC1CCN(Cc2ccccc2)CC1,inactive: -2.01%
19,Cc1ccccc1NC1(C#N)CCN(Cc2ccccc2)CC1,inactive: 2.59%
20,CC(C)(C)n1nnnc1C(c1ccnc2ccccc12)N1CCC(n2c(=O)[nH]c3ccccc32)CC1 (stereo not drawn),inactive: -6.73%
21,COc1ccc(C(c2nnnn2C2CCCCC2)N2CCC(n3c(=O)[nH]c4ccccc43)CC2)cc1 (stereo not drawn),inactive: -2.21%
22,O=C(NCC1(N2CCCCC2)CCCCC1)c1ccco1,inactive: -63.8%
23,Cn1c(=O)[nH]cc(N(CCCl)CCCl)c1=O,inactive: 1.29%
24,CN(C)c1ccc(C(=O)NCC2(N3CCCCC3)CCCCC2)cc1,inactive: -1.84%
25,CC(C)(C)OC(=O)N1CCC(N(C(=O)c2ccccc2)c2ccc(Cl)cc2)CC1,inactive: -6.31%

row,Structure (SMILES),inhibition
1,N#Cc1ccc(C(=O)NCC2(N3CCCCC3)CCCCC2)cc1,inactive: -0.93%
2,C/C(N)=N\P(=O)(Oc1ccccc1)Oc1ccccc1,inactive: -0.973%
3,CCCN1CCC(Nc2cc(OC)cc(OC)c2)CC1,inactive: 34.2%
4,O=c1[nH]c2ccccc2n1C1CCN(C(c2ccccc2)c2nnnn2C2CCCC2)CC1 (stereo not drawn),inactive: -10.5%
5,Cc1cc(N(CCCl)CCCl)ccc1C=O,inactive: -19.5%
6,CN(C)C1(CNC(=O)c2cccc(C#N)c2)CCCCC1,inactive: 3.12%
7,CC(C)(C)n1nnnc1C(c1cccc2ccccc12)N1CCC(n2c(=O)[nH]c3ccccc32)CC1 (stereo not drawn),inactive: 15.3%
8,O=C(NCC1(N2CCOCC2)CCCCC1)c1cc(Br)ccc1Cl,inactive: -7.34%
9,CCCCn1nnnc1C(c1ccccc1)N1CCC(n2c(=O)[nH]c3ccccc32)CC1 (stereo not drawn),inactive: -23%
10,COc1cc(C(=O)NCC2(N3CCOCC3)CCCCC2)cc(OC)c1C,inactive: -1.54%
11,COc1ccc(C(=O)NCC2(N3CCOCC3)CCCCC2)cc1OC,inactive: 1.64%
12,O=c1[nH]c2ccccc2n1C1CCN(C(c2ccnc3ccccc23)c2nnnn2C2CCCC2)CC1 (stereo not drawn),inactive: -2.91%
13,O=c1[nH]c2ccccc2n1C1CCN(C(c2cccs2)c2nnnn2C2CCCCC2)CC1 (stereo not drawn),inactive: 0.949%
14,COc1cccc(C(c2nnnn2C(C)(C)C)N2CCC(n3c(=O)[nH]c4ccccc43)CC2)c1OC (stereo not drawn),inactive: -10.3%
15,CCOC(=O)N1CCC(Nc2ccc(C)cc2)CC1,inactive: -0.083%
16,CCCCn1nnnc1C(c1cccc(OC)c1OC)N1CCC(n2c(=O)[nH]c3ccccc32)CC1 (stereo not drawn),inactive: -2.01%
17,O=c1[nH]c2ccccc2n1C1CCN(C(c2cccs2)c2nnnn2C2CCCC2)CC1 (stereo not drawn),inactive: -0.96%
18,COc1ccc(CN(CCCl)CCCl)cc1Cl,inactive: -4.95%
19,CN(C)c1cccc(C(=O)NCC2(N3CCCCC3)CCCCC2)c1,inactive: -10.6%
20,CC(C)c1ccc(NC2CCN(C(=O)OC(C)(C)C)CC2)cc1,inactive: -1.16%
21,CCCCn1nnnc1C(c1ccnc2ccccc12)N1CCC(n2c(=O)[nH]c3ccccc32)CC1 (stereo not drawn),inactive: -5.15%
22,COc1cc(OC)c(C(=O)NCC2(N(C)C)CCCCC2)cc1OC,inactive: 7.48%
23,O=C(NCC1(N2CCOCC2)CCCCC1)c1cc(F)c(F)cc1Cl,inactive: -0.962%
24,CCC(c1nnnn1C(C)(C)C)N1CCC(n2c(=O)[nH]c3ccccc32)CC1 (stereo not drawn),inactive: -3.24%
25,O=C(NCC1(N2CCCCC2)CCCCC1)c1cncc(Br)c1,inactive: 0.028%

row,Structure (SMILES),inhibition
1,CN1CCC(Nc2cccc(F)c2)CC1,inactive: 4.37%
2,Cc1ccc(C(=O)NCC2(N(C)C)CCCCC2)o1,inactive: 1.22%
3,CCCOc1ccc(C(=O)NCC2(N(C)C)CCCCC2)cc1OC,inactive: -9.86%
4,COc1ccc(C(c2nnnn2C2CCCC2)N2CCC(n3c(=O)[nH]c4ccccc43)CC2)cc1 (stereo not drawn),inactive: -1.91%
5,CC(C)(C)n1nnnc1C(c1ccccc1OC(F)(F)F)N1CCC(n2c(=O)[nH]c3ccccc32)CC1 (stereo not drawn),inactive: 0.964%
6,O=C(NCC1(N2CCCCC2)CCCCC1)c1ccc(OC(F)F)cc1,inactive: -54.8%
7,CSc1ccc(C(=O)NCC2(N3CCOCC3)CCCCC2)cc1,inactive: 0.0945%
8,O=C(NCC1(N2CCCCC2)CCCCC1)c1cccc([N+](=O)[O-])c1,inactive: -1.92%
9,CCN1CCC(Nc2ccc(Cl)cc2)CC1,inactive: 0.0135%
10,O=c1[nH]c2ccccc2n1C1CCN(C(c2ccccc2OC(F)(F)F)c2nnnn2C2CCCC2)CC1 (stereo not drawn),inactive: -4.74%
11,O=C(NCC1(N2CCCCC2)CCCCC1)c1cccc(C(F)(F)F)c1,inactive: 4.56%
12,CCCCn1nnnc1C(c1cccc2ccccc12)N1CCC(n2c(=O)[nH]c3ccccc32)CC1 (stereo not drawn),inactive: -3.78%
13,COc1ccc(NC2CCN(C(=O)OC(C)(C)C)CC2)cc1,inactive: -13.8%
14,CC(C)c1ccc(C(=O)NCC2(N3CCOCC3)CCCCC2)cc1,inactive: -3.92%
15,CN1CCN(CCOC(=O)C(O)(c2ccccc2)c2ccccc2)CC1,inactive: 1.79%
16,COc1cc(C(=O)NCC2(N3CCCCC3)CCCCC2)ccc1OC(F)F,inactive: -44.3%
17,CCOc1ccc(C)cc1CN(CCCl)CCCl,inactive: -3.5%
18,CC(C)(C)n1nnnc1C(c1ccccc1)N1CCC(n2c(=O)[nH]c3ccccc32)CC1 (stereo not drawn),inactive: 0.093%
19,O=C1CCN(Cc2ccccc2)CC1,inactive: 0.754%
20,O=C(NCC1(N2CCCCC2)CCCCC1)c1ccc(F)cc1,inactive: -11.4%
21,CCCCOc1ccc(C(=O)NCC2(N3CCOCC3)CCCCC2)cc1,inactive: -4.57%
22,O=P1(N(CCCl)CCCl)SCCCS1,inactive: 1.45%
23,CCCCn1nnnc1C(c1cc2ccccc2o1)N1CCC(n2c(=O)[nH]c3ccccc32)CC1 (stereo not drawn),inactive: -3.37%
24,CCOC(=O)N1CCC(Nc2ccc(F)cc2)CC1,inactive: -8.64%
25,O=c1[nH]c2ccccc2n1C1CCN(C(c2ccccc2)c2nnnn2C2CCCCC2)CC1 (stereo not drawn),inactive: -12.4%

row,Structure (SMILES),inhibition
1,O=c1[nH]c2ccccc2n1C1CCN(C(c2cccc3ccccc23)c2nnnn2C2CCCC2)CC1 (stereo not drawn),inactive: -1.76%
2,COc1cc(C(=O)NCC2(N(C)C)CCCCC2)ccc1OC(F)F,inactive: 3.54%
3,CCOC(=O)N1CCC(Nc2cccc(C)c2)CC1,inactive: 2.86%
4,O=C(NCC1(N2CCCCC2)CCCCC1)c1ccc(=O)[nH]c1,inactive: 7.99%
5,CCCCn1nnnc1C(c1cccs1)N1CCC(n2c(=O)[nH]c3ccccc32)CC1 (stereo not drawn),inactive: 37.9%
6,CCCCn1nnnc1C(CC)N1CCC(n2c(=O)[nH]c3ccccc32)CC1 (stereo not drawn),inactive: -0.768%
7,O=C(NCC1(N2CCCCC2)CCCCC1)c1cccs1,inactive: -6.54%
8,COc1ccc(C(=O)NCC2(N3CCCCC3)CCCCC2)cc1,inactive: -7.94%
9,CCC(c1nnnn1C1CCCC1)N1CCC(n2c(=O)[nH]c3ccccc32)CC1 (stereo not drawn),inactive: -1.12%
10,COc1ccc(C(=O)NCC2(N3CCCCC3)CCCCC2)c(OC)c1OC,inactive: -37.5%
11,CC(C)(C)OC(=O)N1CCC(N(C(=O)c2ccccc2)c2ccc(F)cc2)CC1,inactive: 0.104%
12,CSc1ccccc1C(=O)NCC1(N2CCCCC2)CCCCC1,inactive: -27.6%
13,Cc1cccc(NC2(C#N)CCN(Cc3ccccc3)CC2)c1,inactive: -4.88%
14,O=c1[nH]c2ccccc2n1C1CCN(C(c2ccccc2OC(F)(F)F)c2nnnn2C2CCCCC2)CC1 (stereo not drawn),inactive: -2.86%
15,O=C(NCC1(N2CCCCC2)CCCCC1)c1ccc(Cl)nc1,inactive: -2.41%
16,Cc1cc(C)cc(N(C(=O)c2ccccc2)C2CCN(C(=O)OC(C)(C)C)CC2)c1,inactive: 0.212%
17,CCOC(=O)N1CCC(Nc2ccc(OC)cc2)CC1,inactive: -6.15%
18,CCCCn1nnnc1C(c1ccc(OC)cc1)N1CCC(n2c(=O)[nH]c3ccccc32)CC1 (stereo not drawn),inactive: -2.83%
19,O=c1[nH]c2ccccc2n1C1CCN(C(c2cc3ccccc3o2)c2nnnn2C2CCCCC2)CC1 (stereo not drawn),inactive: -4.06%
20,O=C(OC1CN2CCC1CC2)C1c2ccccc2Oc2ccccc21 (stereo not drawn),inactive: -0.513%
21,N#CC1(Nc2ccccc2)CCN(Cc2ccccc2)CC1,inactive: 10.7%
22,O=C(NCC1(N2CCCCC2)CCCCC1)c1ccc(Cl)s1,inactive: -6.39%
23,COc1ccc(Cl)cc1C(=O)NCC1(N2CCOCC2)CCCCC1,inactive: -0.149%
